Measurements taken from patent US11267868 (dated 2022).

T1: FcgRIa (human, UniProt P12314)
T1 chain: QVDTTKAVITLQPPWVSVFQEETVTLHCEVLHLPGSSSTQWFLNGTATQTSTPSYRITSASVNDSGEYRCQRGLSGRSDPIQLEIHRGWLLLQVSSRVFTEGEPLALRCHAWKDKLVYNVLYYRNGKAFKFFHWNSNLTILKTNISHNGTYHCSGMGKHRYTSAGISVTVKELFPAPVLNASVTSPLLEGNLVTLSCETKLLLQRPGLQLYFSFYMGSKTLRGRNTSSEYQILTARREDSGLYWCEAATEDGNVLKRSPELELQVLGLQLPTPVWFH


Target: T1, FcgRIa
Test: SPR

Binder | Kd [nM]
IL6R-P604/IL6R-L (antibody) chain 1: QVQLQESGPGLVKPSETLSLTCAVSGHSISHDHAWSWVRQPPGEGLEWIGFISYSGITNYNPSLQGRVTISRDNSKNTLYLQMNSLRAEDTAVYYCARSLARTTAMDYWGEGTLVTVSSASTKGPSVFPLAPSSKSTSGGTAALGCLVKDYFPEPVTVSWNSGALTSGVHTFPAVLQSSGLYSLSSVVTVPSSSLGTQTYICNVNHKPSNTKVDKKVEPKSCDKTHTCPPCPAPELLGGDSVMLFPPKPKDTLMISRTPEVTCVVVDVSHEDPEVKFNWYVDGVEVHNAKTKPREEQENATYRVVSVLTVLHQDWLNGKEYKCKVSNKALPAPIEKTISKAKGQPREPQVYTLPPSRDELTKNQVSLTCLVKGFYPSDIAVEWESNGQPENNYKTTPPVLDSDGSFFLYSKLTVDKSRWQQGNVFSCSVMHEALHNHYTQKSLSLSP chain 2: not shown | 13
IL6R-P688/IL6R-L (antibody) chain 1: QVQLQESGPGLVKPSETLSLTCAVSGHSISHDHAWSWVRQPPGEGLEWIGFISYSGITNYNPSLQGRVTISRDNSKNTLYLQMNSLRAEDTAVYYCARSLARTTAMDYWGEGTLVTVSSASTKGPSVFPLAPSSKSTSGGTAALGCLVKDYFPEPVTVSWNSGALTSGVHTFPAVLQSSGLYSLSSVVTVPSSSLGTQTYICNVNHKPSNTKVDKKVEPKSCDKTHTCPPCPAPELLGGDSVMLFPPKPKDTLMISRTPEVTCVVVDVSPEDPEVKFNWYVDGVEVHNAKTKPREEQENSTYRVVSVLTVLHQDWLNGKEYKCKVNNKALPAPIEKTISKAKGQPREPQVYTLPPSRDELTKNQVSLTCLVKGFYPSDIAVEWESNGQPENNYKTTPPVLDSDGSFFLYSKLTVDKSRWQQGNVFSCSVMHEALHNHYTQKSLSLSP chain 2: not shown | 13
